The values below come from US4238473A, “Artificial oligosaccharide antigenic determinants” (priority 1975, dated 1980).

In this experiment the test system is Rabbit antisera raised to Le^a -BSA antigens. The experiment in a line: Immunodiffusion of rabbit antisera raised to Le^a -BSA antigens. Type of experiment: binding.

Turning to “HSA: human serum albumin, carrier protein”, the “line of precipitation on immunodiffusion” value is recorded as “No line of precipitation”.
